Measured values taken from patent publication US20080200454A1, “CARBON-LINKED TETRAHYDRO-PYRAZOLO-PYRIDINE MODULATORS OF CATHEPSIN S” (priority 2007, published 2008).

Amino acid sequences for entries named in this document (tags omitted). Residues count along the entry.
UniProt P25774, 115-331 limits assumed: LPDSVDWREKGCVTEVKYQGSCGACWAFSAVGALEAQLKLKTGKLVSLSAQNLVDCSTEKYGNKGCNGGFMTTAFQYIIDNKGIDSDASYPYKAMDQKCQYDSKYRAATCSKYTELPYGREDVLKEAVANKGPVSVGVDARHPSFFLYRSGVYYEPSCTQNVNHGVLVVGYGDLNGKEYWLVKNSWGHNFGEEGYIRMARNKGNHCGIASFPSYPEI

Target: Recombinant human cathepsin S (CatS) (Homo sapiens, UniProt P25774)
Assay: Recombinant human cathepsin S (CatS) inhibition assay, fluorogenic substrate Z-Valine-Valine-Arginine-AMC;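 further: Baculovirus-expressed CatS in pH 5.0 sodium acetate buffer with DTT and NaCl, fluorescence read each minute over 20 min, inhibition derived from rate slope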
Conditions: read-out: CatS IC50; Table 3; average of results obtained

Compound	IC50 [µM]
CS(=O)(=O)N1CCc2c(c(-c3ccc(Cl)c(C#Cc4ccc(CN[C@@H]5CCCc6ccccc65)cc4)c3)nn2CCCN2CCN(c3ccccc3)CC2)C1	0.02
CS(=O)(=O)N1CCc2c(c(-c3ccc(Cl)c(C#Cc4ccc(CN[C@@H]5c6ccccc6C[C@@H]5O)cc4)c3)nn2CCCN2CCN(c3ccccc3)CC2)C1	0.04
